In PMC7293020 (Nucleic Acids Research, 2020):

Biological target: T1, Escherichia coli exonuclease I (ExoI) (Escherichia coli, UniProt P04995 1-475)
T1 sequence (looked up): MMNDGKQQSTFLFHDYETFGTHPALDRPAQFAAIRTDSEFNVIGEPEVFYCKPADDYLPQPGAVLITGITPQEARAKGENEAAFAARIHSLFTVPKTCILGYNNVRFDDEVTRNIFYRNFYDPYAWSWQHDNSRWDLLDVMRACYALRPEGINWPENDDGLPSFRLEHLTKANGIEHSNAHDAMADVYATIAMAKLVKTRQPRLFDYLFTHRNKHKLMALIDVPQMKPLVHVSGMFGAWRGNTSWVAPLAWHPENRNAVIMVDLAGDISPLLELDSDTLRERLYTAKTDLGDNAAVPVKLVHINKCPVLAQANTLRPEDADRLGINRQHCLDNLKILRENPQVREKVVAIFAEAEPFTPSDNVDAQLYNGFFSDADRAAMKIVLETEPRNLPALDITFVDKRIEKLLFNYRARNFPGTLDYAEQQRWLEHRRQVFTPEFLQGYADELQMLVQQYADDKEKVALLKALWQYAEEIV
Assay: ITC

B1: Escherichia coli single-stranded DNA-binding protein (EcSSB) (natural protein, UniProt P0AGE0 1-178, looked up)
chain: MASRGVNKVILVGNLGQDPEVRYMPNGGAVANITLATSESWRDKATGEMKEQTEWHRVVLFGKLAEVASEYLRKGSQVYIEGQLRTRKWTDQSGQDRYTTEVVVNVGGTMQMLGGRQGGGAPAGGNIGGGQPQGGWGQPQQPQGGNQFSGGAQSRPQQSAPAAPSNEPPMDFDDDIPF
**Q.** Does B1 bind?
**A.** binds
